Earlier results in PMC9564337, “Development of a Neurotensin-Derived ^68Ga-Labeled PET Ligand with High In Vivo Stability for Imaging of NTS1 Receptor-Expressing Tumors” (Cancers, 2022).
Marks after values point to notes of the source that are not given here.

Conditions: human plasma, 37 °C, ref Schindler et al. [40], cited from earlier work

Structure (SMILES): CC(C)C[C@H](NC(=O)[C@@H](NC(=O)[C@H](Cc1ccc(O)cc1)NC(=O)[C@@H]1CCCN1C(=O)[C@H](CCCNC(=N)N)NC(=O)[C@@H](N)CCCNC(=N)N)C(C)(C)C)C(=O)O
- % Intact Peptide in Plasma after 10 min (10 min): 11 ^d %
- % Intact Peptide in Plasma after 1 h (1 h): <1 ^d %
- % Intact Peptide in Plasma after 24 h (24 h): <1 ^d %
- % Intact Peptide in Plasma after 48 h (48 h): <1 ^d %
